Experimental findings from ChEMBL document CHEMBL5512690, “Identification and Validation of PKR as a Direct Target for the Novel Sulfonamide-Substituted Tetrahydroquinoline Nonselective Inhibitor of the NLRP3 Inflammasome” (J Med Chem, 2024) are described below.

Protein sequences, listed by entry. Tags and fused reporters are not part of them. Lines headed by an entry give the natural chain unless they say otherwise; changes in a name come on top.
UniProt Q8R4B8, whole entry: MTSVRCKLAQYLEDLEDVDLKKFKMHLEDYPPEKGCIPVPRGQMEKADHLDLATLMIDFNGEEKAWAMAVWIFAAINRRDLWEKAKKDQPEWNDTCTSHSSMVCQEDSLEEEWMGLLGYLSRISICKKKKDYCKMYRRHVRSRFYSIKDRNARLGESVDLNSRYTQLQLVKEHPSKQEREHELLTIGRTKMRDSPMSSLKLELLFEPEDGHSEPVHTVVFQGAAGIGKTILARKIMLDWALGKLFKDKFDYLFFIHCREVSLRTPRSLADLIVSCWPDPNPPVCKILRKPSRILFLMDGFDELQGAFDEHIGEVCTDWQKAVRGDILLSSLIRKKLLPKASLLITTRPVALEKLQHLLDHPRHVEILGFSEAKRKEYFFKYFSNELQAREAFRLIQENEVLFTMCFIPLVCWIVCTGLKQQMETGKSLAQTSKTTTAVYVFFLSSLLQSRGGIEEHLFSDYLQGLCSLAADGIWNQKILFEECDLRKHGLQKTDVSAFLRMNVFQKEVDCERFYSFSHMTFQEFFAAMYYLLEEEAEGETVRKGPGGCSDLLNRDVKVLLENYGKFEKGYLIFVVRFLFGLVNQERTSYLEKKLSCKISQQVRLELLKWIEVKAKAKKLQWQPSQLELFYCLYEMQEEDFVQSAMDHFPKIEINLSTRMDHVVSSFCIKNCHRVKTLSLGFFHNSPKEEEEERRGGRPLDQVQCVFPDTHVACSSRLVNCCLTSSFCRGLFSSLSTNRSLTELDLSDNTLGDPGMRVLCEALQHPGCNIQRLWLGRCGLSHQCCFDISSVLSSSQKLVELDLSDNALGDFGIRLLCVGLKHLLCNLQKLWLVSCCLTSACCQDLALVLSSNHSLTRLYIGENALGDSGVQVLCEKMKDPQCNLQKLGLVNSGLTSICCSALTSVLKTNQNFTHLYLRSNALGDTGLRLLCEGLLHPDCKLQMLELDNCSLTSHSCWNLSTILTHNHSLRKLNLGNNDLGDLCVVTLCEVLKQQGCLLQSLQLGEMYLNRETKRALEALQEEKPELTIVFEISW
UniProt Q9NPP4, whole entry: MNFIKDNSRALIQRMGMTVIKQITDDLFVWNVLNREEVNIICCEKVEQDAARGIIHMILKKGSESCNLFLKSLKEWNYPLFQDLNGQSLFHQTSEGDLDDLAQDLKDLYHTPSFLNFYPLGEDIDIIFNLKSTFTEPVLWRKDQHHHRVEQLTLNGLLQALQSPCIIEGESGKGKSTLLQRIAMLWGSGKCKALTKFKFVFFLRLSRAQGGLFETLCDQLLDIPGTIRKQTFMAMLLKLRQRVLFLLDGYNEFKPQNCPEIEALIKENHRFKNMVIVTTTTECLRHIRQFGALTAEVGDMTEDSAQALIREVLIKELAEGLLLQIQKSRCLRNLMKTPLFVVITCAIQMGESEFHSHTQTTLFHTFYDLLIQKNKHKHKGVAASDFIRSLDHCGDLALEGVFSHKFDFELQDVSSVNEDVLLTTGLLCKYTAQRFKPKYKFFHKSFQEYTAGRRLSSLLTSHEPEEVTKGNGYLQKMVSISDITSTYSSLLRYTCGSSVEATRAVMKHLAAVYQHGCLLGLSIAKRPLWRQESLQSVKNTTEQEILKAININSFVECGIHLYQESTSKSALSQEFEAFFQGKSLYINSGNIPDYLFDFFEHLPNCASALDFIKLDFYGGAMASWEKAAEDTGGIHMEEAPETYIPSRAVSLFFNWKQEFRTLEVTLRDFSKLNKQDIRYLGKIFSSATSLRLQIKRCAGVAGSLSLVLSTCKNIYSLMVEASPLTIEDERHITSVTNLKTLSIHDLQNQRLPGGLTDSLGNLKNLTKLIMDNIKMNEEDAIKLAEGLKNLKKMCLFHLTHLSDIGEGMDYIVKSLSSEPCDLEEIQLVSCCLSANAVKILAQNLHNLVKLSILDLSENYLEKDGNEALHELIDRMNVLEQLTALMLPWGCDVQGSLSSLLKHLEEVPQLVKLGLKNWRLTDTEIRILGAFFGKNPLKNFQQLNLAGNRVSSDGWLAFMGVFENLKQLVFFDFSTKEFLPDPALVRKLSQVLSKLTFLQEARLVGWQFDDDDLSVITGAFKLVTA
UniProt P19525: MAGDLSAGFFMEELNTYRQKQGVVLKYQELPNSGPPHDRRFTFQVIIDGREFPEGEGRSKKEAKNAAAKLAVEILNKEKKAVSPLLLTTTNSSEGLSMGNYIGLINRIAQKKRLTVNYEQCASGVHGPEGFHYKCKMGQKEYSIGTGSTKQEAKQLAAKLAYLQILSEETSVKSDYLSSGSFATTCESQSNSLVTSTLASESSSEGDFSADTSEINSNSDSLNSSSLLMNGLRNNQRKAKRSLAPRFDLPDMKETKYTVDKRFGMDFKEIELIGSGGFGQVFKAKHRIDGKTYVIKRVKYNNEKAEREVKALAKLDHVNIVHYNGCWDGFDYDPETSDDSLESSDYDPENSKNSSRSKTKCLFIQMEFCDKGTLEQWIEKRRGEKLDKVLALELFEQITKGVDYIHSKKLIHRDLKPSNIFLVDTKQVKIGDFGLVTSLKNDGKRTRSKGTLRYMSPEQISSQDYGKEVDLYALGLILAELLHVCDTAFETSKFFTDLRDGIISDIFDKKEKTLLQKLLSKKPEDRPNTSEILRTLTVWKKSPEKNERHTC

For assay [1], the target named is NACHT, LRR and PYD domains-containing protein 3 (Mus musculus) (UniProt Q8R4B8). Description: Inhibition of NLRP3 inflammasome activation in LPS primed mouse BMDM cells assessed as reduction in IL-1 beta level at 5 to 15 uM preincubated with compound for 24 hrs followed by LPS stimulation for 3 hrs and further incubated with ATP for 1 hr by ELISA method. The following applies: dose 5-15 µM, time 28.0 hrs. Type of assay: cell-based. Background: An ELISA detects its analyte on a solid surface through an enzyme-linked reagent.

In assay [2] the target is T1, Interferon-inducible protein AIM2 (Homo sapiens) (UniProt O14862).
T1 sequence (whole entry): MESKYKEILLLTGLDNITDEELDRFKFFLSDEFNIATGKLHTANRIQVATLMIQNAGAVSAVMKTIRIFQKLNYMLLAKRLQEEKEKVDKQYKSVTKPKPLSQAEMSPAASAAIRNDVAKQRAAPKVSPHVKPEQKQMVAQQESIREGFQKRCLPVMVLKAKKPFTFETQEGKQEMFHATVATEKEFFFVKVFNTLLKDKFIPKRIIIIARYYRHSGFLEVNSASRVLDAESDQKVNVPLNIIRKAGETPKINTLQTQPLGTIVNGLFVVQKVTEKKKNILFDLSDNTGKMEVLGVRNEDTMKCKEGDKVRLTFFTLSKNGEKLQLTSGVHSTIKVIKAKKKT
Description: Inhibition of AIM2 inflammasome activation in LPS primed human differentiated THP-M cells derived PMA induced THP-1 cells assessed as inhibition of IL-1 beta level at 5 to 15 uM preincubated with compound for 24 hrs followed by LPS stimulation further stimulated for 4 hrs with Poly (dA:dT) by ELISA method. Type of assay: cell-based. The conditions noted are these: dose 5-15 µM, time 28.0 hrs.

Assay [3] has as its target NLR family CARD domain-containing protein 4 (Homo sapiens) (UniProt Q9NPP4). In words: Inhibition of NLRC4 inflammasome activation in LPS primed human differentiated THP-M cells derived PMA induced THP-1 cells assessed as inhibition of IL-1 beta level at 5 to 15 uM preincubated with compound for 24 hrs followed by LPS stimulation further stimulated for 4 hrs with Poly (dA:dT) by ELISA method. The conditions noted are these: dose 5-15 µM, time 28.0 hrs. It is filed as cell-based.

The next assay relates to THP-M. In words: Cytotoxicity against human differentiated THP-M cells derived PMA induced THP-1 cells at upto 100 uM measured after 72 hrs by MTT assay. It is filed as functional, cell-based. On the technique in general: Tetrazolium dyes change colour on reduction, which living cells bring about.
In assay [4] the target is Interferon-induced, double-stranded RNA-activated protein kinase (Homo sapiens) (UniProt P19525). Description: Binding affinity to PKR in human differentiated THP-M cells derived PMA induced THP-1 cells assessed as protein labelling measured after 12 hrs by Dapi-staining based analysis. Type of assay: cell-based. The following applies: dose 2-20 µM.
Assay [5] shares this target. In words: Binding affinity to human PKR by immunoblot analysis. The following applies: dose 10-20 µM. For orientation: A western blot detects proteins with antibodies after separation by electrophoresis.
Assay [6] shares this target. In words: Binding affinity to PKR in human differentiated THP-M cells derived PMA induced THP-1 cells assessed as protein labelling at 10 to 20 uM measured after 12 hrs by immunofluorescence analysis. Type of assay: cell-based. The following applies: dose 10-20 µM.

The source made the active and inactive calls. No cut-off for these calls is given here.

`CS(=O)(=O)N1CCCc2ccc(NS(=O)(=O)c3ccc(-c4ccccc4)cc3)cc21`: the inhibition entry in assay [1], in assay [2] and in assay [3] was “Active” throughout.

Turning to `C#CCCC1(CCN2CCCc3ccc(NS(=O)(=O)c4ccc(-c5ccccc5)cc4)cc32)N=N1`, in the assay with THP-M, the outcome was inactive. For the same compound, the result in assay [4] and in assay [6] was Active. Moreover, the Activity entry in assay [5] is “Dose-Dependent Effect”.
